Legend:
[1] = test system: formalin edema of a foot in the rat; conditions: in vivo, ip
[2] = test system: carrageenin edema; conditions: rat, in vivo, ip
[3] = test system: cotton granuloma; conditions: in vivo
[4] = test system: threshold of pain sensitivity in contact-heat stimulation; conditions: mouse, in vivo
[5] = in vivo; conditions: mouse, ip
[6] = in vivo; conditions: rat

Cc1cccc(Nc2ccccc2C(=O)O)c1C [Mephenamine acid, N--(2,3-dimethylphenyl) anthranilic acid]
Therapeutic index (formalin edema) [1]: 1.5
Therapeutic index (carrageenin edema) [2]: 1.8
Therapeutic index (cotton granuloma) [3]: 7.43
Therapeutic index (analgetic activity) [4]: 8.3
LD50 at 168 h [5]: 150 mg/kg
LD50 at 168 h ([6]; ip): 180 mg/kg
LD50 at 168 h ([6]; po): 520 mg/kg

Reference: patent US4455312A
